Experimental data from US10548896B2, “Treatment of relapsed and/or refractory solid tumors and non-Hodgkin's lymphomas” (CELGENE QUANTICEL RESEARCH, INC., priority 2016, dated 2020).

Experiment: 4-week toxicity study with 4-week recovery in mice (incl. toxicokinetics)

Compound: COc1ccc(-c2c(-c3ccc(C#N)c(F)c3)nc(N3CCC(N)CC3)n(C)c2=O)cc1F [Compound A, 4-[2-(4-amino-piperidin-1-yl)-5-(3-fluoro-4-methoxy-phenyl)-1-methyl-6-oxo-1,6-dihydro-pyrimidin-4-yl]-2-fluoro-benzonitrile]
- platelet and reticulocyte counts (45 mg base/kg/dose): Marked decreases in platelet and reticulocyte counts
- animals sacrificed in moribund condition (45 mg base/kg/dose QDx5/week, TK subgroup): Five
